Literature values in US12044651B2, “Sensor device and methods” (SCENTIAN BIO LIMITED, priority 2016, dated 2024).
Some compounds may have been tested in ways that are not shown here.

Tested on: OBP proteins
Conditions: cited from earlier work

TNT
concentration that could be detected: 52 pM
